What was measured:
[1] = tested on: Bacillus subtilis B-886; experiment: MIC, two-fold serial dilutions; details: MH medium with 0.9% NaCl, 0.1% BSA, 5 × 10^5 CFU/mL, 37 °C, 24 h
[2] = tested on: Micrococcus luteus B-1314; experiment: MIC, two-fold serial dilutions; details: MH medium with 0.9% NaCl, peptides diluted in 0.1% BSA, 5 × 10^5 CFU/mL, 37 °C, 24 h

Row | SMILES | Minimum Inhibitory Concentration [1] [µM] | Minimum Inhibitory Concentration [2] [µM]
1 | CC[C@H](C)[C@@H]1NC(=O)[C@@H](NC(=O)[C@@H](NC(=O)[C@H](CCCNC(=N)N)NC(=O)[C@@H]2CCCN2C(=O)[C@H](CO)NC(=O)[C@@H](N)CCCNC(=N)N)C(C)C)CSSC[C@@H](C(=O)N[C@@H](Cc2c[nH]c3ccccc23)C(=O)NCC(=O)O)NC(=O)[C@H](CCCNC(=N)N)NC(=O)[C@H](CCCNC(=N)N)NC(=O)[C@H](Cc2ccc(O)cc2)NC(=O)[C@@H]2CSSC[C@H](NC(=O)[C@H](C(C)C)NC(=O)[C@H](CCCNC(=N)N)NC1=O)C(=O)N[C@@H](CCCNC(=N)N)C(=O)N[C@@H](CC(N)=O)C(=O)NCC(=O)N[C@@H](C(C)C)C(=O)N2 [CT2] | 8 | 1
2 | CC[C@H](C)[C@@H]1NC(=O)[C@@H](NC(=O)[C@@H](NC(=O)[C@H](CCCNC(=N)N)NC(=O)[C@@H]2CCCN2C(=O)[C@@H](N)CO)C(C)C)CSSC[C@@H](C(=O)N[C@@H](Cc2c[nH]c3ccccc23)C(=O)O)NC(=O)[C@H](CCCNC(=N)N)NC(=O)[C@H](CCCNC(=N)N)NC(=O)[C@H](Cc2ccc(O)cc2)NC(=O)[C@@H]2CSSC[C@H](NC(=O)[C@H](C(C)C)NC(=O)[C@H](CCCNC(=N)N)NC1=O)C(=O)N[C@@H](CCCNC(=N)N)C(=O)N[C@@H](CC(N)=O)C(=O)NCC(=O)N[C@@H](C(C)C)C(=O)N2 [CT3] | 32 | 4
3 | CC[C@H](C)[C@@H]1NC(=O)[C@@H](NC(=O)[C@@H](NC(=O)[C@@H](N)CCCNC(=N)N)C(C)C)CSSC[C@@H](C(=O)N[C@@H](Cc2c[nH]c3ccccc23)C(=O)O)NC(=O)[C@H](CCCNC(=N)N)NC(=O)[C@H](CCCNC(=N)N)NC(=O)[C@H](Cc2ccc(O)cc2)NC(=O)[C@@H]2CSSC[C@H](NC(=O)[C@H](C(C)C)NC(=O)[C@H](CCCNC(=N)N)NC1=O)C(=O)N[C@@H](CCCNC(=N)N)C(=O)N[C@@H](CC(N)=O)C(=O)NCC(=O)N[C@@H](C(C)C)C(=O)N2 [CT4] | 16 | 4
4 | CC(C)[C@@H]1NC(=O)CNC(=O)[C@H](CC(N)=O)NC(=O)[C@H](CCCNC(=N)N)NC(=O)[C@@H]2CSSC[C@H](NC1=O)C(=O)N[C@@H](Cc1ccc(O)cc1)C(=O)N[C@@H](CCCNC(=N)N)C(=O)N[C@@H](CCCNC(=N)N)C(=O)N[C@H](C(=O)N[C@@H](Cc1c[nH]c3ccccc13)C(=O)O)CSSC[C@H](NC(=O)[C@@H](NC(=O)[C@@H](N)CCCNC(=N)N)C(C)C)C(=O)N[C@@H](Cc1ccccc1)C(=O)N[C@@H](CCCNC(=N)N)C(=O)N[C@@H](C(C)C)C(=O)N2 [CT6] | 16 | 4
5 | CC[C@H](C)[C@@H]1NC(=O)[C@@H](NC(=O)[C@@H](NC(=O)[C@H](CCCNC(=N)N)NC(=O)[C@@H]2CCCN2C(=O)[C@@H](N)CO)C(C)C)CSSC[C@@H](C(=O)N[C@@H](Cc2c[nH]c3ccccc23)C(=O)NCC(=O)O)NC(=O)[C@H](CCCNC(=N)N)NC(=O)[C@H](CCCNC(=N)N)NC(=O)[C@H](Cc2ccc(O)cc2)NC(=O)[C@@H]2CSSC[C@H](NC(=O)[C@H](C(C)C)NC(=O)[C@H](CCCNC(=N)N)NC1=O)C(=O)N[C@@H](CCCNC(=N)N)C(=O)N[C@@H](CC(N)=O)C(=O)NCC(=O)N[C@@H](C(C)C)C(=O)N2 [Cap, capitellacin] | 16 | 4
